These results are taken from paper PMC3752001 (European journal of pharmacology, 2012).

Sequences of proteins named here, by UniProt entry; tags and fusion partners are left off. Residues count along the entry.
UniProt P17787, 26-502: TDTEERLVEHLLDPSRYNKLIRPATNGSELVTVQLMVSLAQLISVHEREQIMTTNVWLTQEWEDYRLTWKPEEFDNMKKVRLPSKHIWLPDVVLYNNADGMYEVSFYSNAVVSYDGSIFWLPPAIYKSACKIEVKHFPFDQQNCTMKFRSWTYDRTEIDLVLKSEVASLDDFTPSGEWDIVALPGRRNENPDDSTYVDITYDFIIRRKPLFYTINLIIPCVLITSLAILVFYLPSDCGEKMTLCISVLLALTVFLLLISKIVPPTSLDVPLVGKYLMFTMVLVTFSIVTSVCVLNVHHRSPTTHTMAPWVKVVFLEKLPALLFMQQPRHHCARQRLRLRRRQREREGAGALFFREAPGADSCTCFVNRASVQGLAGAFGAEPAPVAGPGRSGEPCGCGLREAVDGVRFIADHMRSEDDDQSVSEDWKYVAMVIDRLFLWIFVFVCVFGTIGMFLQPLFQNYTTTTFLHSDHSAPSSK
UniProt P43681, 27-627: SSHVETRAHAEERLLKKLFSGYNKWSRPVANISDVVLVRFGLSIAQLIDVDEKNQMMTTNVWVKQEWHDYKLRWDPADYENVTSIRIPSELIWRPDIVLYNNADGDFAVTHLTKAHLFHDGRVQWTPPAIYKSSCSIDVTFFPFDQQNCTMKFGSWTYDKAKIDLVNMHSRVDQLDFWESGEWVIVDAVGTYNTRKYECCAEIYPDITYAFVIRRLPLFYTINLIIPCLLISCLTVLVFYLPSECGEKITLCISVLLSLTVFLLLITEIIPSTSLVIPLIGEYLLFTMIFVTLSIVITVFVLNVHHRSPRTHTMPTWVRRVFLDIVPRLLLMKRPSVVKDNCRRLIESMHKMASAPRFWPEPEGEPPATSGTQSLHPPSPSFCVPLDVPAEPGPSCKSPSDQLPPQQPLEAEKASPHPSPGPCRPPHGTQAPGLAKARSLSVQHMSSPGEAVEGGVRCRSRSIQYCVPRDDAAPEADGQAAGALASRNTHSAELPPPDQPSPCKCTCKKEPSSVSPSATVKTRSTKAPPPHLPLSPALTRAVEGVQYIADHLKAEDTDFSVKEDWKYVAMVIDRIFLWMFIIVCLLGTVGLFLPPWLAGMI

The target in the assay is high sensitivity (HS) α4β2 nicotinic acetylcholine receptors (Homo sapiens, UniProt P17787+P43681). Kind of assay: Two-electrode voltage clamp, high sensitivity. The assay is classed as cell-based. Particulars: Tris co-applied with 10 μM acetylcholine, phosphate ND-96. For orientation: Two-electrode voltage clamp holds a large cell at a set potential and records current.

The term IC50 denotes the midpoint of a concentration-inhibition curve. A higher IC50 goes with weaker potency.

Consider “Tris (hydroxymethyl)-aminomethane hydrochloride”, for which the IC50 was found to be 10 mM.
